We go through one compound from patent publication US4415495A, “5,6;8,9-Tetrahydro-7H-dibenz(d,f)azonines” (Godecke Aktiengesellschaft, priority 1981, dated 1983).

In data set [1] the test system is Rats with calcium chloride induced arrhythmias. Kind of data set: Calcium chloride induced arrhythmias in narcotised rats (prophylactic i.v. administration). The format is in vivo. Particulars: in comparison with control animals or procainamide. The text has this: By means of the intravenous infusion of a calcium chloride solution, […] induced in narcotised rats which, after termination of the infusion, continue for a certain period of time (modification of the method described by Malinow et al., Arch. Int. Pharmacodyn, 102, 266/1955). This arrhythmic phase is shortened by the prophylactic administration of antiarrhythmic drugs. The activities of the compounds according to the present invention are compared with those of procainamide and phenytoin. The results of the experiments with calcium chloride induced arrhythmias on rats are summarized in the following Table I. The average period of arrhythmia is calculated from experiments with at least 10 animals.

The nature of another data set: in vivo. To be noted: mouse, po. The method, then:
The compounds according to the present invention are administered intragastrally to male mice (NMRI) with a body weight of from 20 to 25 g. Each dosage group consists of 4 animals. The LD50 values are determined after having observed the animals for 7 days.

Usually LD50 stands for the dose expected to kill half of the subjects tested. On to `O=C1NC(=O)C(c2ccccc2)(c2ccccc2)N1` [phenytoin, reference compound], for which, in data set [1], the “antiarrhythmic action / period of arrhythmia (in words)” value is given as “did not exhibit an antiarrhythmic action”. In addition, in “in vivo”, the LD50 at 168 h worked out at 150 mg/kg.
